Among the data in patent US20220388964A1 (HiberCell, Inc., priority 2019, published 2022) are IC50 values, retold here.

Amino acid sequences for entries named in this document (tags omitted).
UniProt Q9P2K8, whole entry: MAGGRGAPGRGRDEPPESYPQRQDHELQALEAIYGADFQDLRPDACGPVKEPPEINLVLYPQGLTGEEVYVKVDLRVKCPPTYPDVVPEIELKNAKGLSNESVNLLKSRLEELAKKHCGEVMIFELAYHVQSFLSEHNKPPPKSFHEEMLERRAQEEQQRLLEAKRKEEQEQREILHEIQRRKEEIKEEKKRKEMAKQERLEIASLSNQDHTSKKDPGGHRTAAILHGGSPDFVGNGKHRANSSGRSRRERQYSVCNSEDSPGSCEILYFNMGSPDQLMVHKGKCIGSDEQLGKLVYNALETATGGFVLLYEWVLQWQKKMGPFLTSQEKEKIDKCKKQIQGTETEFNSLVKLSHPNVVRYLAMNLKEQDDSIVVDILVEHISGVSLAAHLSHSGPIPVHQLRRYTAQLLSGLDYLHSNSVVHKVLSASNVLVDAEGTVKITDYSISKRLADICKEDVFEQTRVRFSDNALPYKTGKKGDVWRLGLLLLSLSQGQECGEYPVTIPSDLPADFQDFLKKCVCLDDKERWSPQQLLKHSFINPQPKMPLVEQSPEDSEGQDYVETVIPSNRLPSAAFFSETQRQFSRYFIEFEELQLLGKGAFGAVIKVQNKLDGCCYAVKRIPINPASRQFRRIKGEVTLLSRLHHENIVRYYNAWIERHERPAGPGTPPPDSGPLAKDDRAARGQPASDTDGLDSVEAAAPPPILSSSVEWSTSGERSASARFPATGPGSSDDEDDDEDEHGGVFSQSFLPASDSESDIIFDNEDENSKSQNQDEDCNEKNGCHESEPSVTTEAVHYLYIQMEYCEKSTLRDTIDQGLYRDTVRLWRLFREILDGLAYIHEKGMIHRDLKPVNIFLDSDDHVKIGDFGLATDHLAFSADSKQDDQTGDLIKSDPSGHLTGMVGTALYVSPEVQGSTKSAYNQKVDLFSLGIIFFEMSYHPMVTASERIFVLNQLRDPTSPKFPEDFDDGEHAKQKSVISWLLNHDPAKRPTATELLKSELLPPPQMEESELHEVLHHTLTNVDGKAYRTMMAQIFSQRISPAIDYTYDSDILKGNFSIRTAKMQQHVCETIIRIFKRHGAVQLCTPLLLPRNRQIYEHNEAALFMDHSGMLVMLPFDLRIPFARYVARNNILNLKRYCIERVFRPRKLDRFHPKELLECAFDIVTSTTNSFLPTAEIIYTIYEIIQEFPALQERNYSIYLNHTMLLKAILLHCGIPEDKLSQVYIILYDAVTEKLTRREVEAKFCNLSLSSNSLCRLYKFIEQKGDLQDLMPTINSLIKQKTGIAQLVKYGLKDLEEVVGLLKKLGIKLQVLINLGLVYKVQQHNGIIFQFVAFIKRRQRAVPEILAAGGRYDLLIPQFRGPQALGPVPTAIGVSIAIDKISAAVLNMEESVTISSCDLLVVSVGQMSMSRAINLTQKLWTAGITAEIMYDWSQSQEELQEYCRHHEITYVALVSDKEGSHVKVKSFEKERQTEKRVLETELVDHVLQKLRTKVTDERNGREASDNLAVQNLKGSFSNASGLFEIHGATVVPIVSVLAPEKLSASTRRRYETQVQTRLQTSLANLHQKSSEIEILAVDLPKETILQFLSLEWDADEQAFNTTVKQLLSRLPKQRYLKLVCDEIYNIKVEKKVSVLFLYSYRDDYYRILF

For orientation: IC50 means the concentration at which inhibition is half-maximal.

The assay addresses GCN2 (Homo sapiens, UniProt Q9P2K8). The experiment in a line: TR-FRET biochemical assay for inhibition of GCN2 (Example 106, for Example 1-4BB). As to conditions: Table 9. Background: TR-FRET usually uses a lanthanide donor and a delayed reading to cut background.

Molecules are shown by their SMILES.

`COc1ncc(Cl)cc1S(=O)(=O)Nc1ccc(F)c(-c2ccc3c(-c4ccn[nH]4)n[nH]c3c2F)c1F` [Example 2BZ, 5-chloro-N-(2,4-difluoro-3-(7-fluoro-3-(1H-pyrazol-5-yl)-1H-indazol-6-yl)phenyl)-2-methoxypyridine-3-sulfonamide] had an IC50 of less than 500 nM.
The value for `Cc1ncc(C#N)cc1S(=O)(=O)Nc1ccc(F)c(-c2ccc3c(C(=O)NCCCO)n[nH]c3c2F)c1F` was 500 to 2500 nM; that for `O=S(=O)(Nc1ccc(F)c(-c2ccc3c(-c4ncc[nH]4)n[nH]c3c2F)c1F)c1cc(F)cc2c1CCC2O` (stereo not shown) was less than 500 nM.
Under `Cc1c(CO)cc(F)cc1S(=O)(=O)Nc1ccc(F)c(-c2ccc3c(C(=O)NCCCN(C)C)n[nH]c3c2F)c1F` stands less than 500 nM; under `CC(=O)Nc1nc(C)c(S(=O)(=O)Nc2cc(F)cc(-c3ccc4c(-c5ncc[nH]5)n[nH]c4c3F)c2F)s1`, less than 500 nM.
Under `O=S(=O)(Nc1ccc(F)c(-c2ccc3c(-c4ncc[nH]4)n[nH]c3c2F)c1F)c1cc(F)cc2c1OCCC2O` (stereo not shown) stands less than 500 nM; under `O=C(Nc1cn[nH]c1)c1n[nH]c2c(F)c(-c3c(F)ccc(NS(=O)(=O)c4cc(F)cc5c4CCC5O)c3F)ccc12` (stereo not shown), less than 500 nM.
`Cc1cc(S(=O)(=O)Nc2cc(F)cc(-c3ccc4c(-c5ncc[nH]5)n[nH]c4c3F)c2F)sn1` yielded an IC50 of 500 to 2500 nM.
`O=S(=O)(Nc1ccc(F)c(-c2ccc3c(-c4ncc[nH]4)n[nH]c3c2F)c1F)c1cc(F)cc2c1CC[C@H]2O` had an IC50 of less than 500 nM.
Under `Cc1ncsc1S(=O)(=O)Nc1ccc(F)c(-c2ccc3c(-c4ncc[nH]4)n[nH]c3c2F)c1F` stands less than 500 nM; under `O=C1NCCc2cc(S(=O)(=O)Nc3ccc(F)c(-c4ccc5c(-c6ncc[nH]6)n[nH]c5c4F)c3F)cc(F)c21`, 2500 to 10000 nM.
In turn, `O=S(=O)(Nc1ccc(F)c(-c2ccc3c(-c4ncc[nH]4)n[nH]c3c2F)c1F)c1cc(F)cc2c1CC[C@@H]2O` displayed an IC50 of less than 500 nM.
Take `O=S(=O)(Nc1ccc(F)c(-c2ccc3c(-c4ncc[nH]4)n[nH]c3c2F)c1F)c1cc(F)cc2c1CC/C2=N\O`: the IC50 was less than 500 nM.
Under `Cc1nc(C)c(S(=O)(=O)Nc2ccc(F)c(-c3ccc4c(-c5ncc[nH]5)n[nH]c4c3F)c2F)s1` stands less than 500 nM; under `Cc1ncc(C#N)cc1S(=O)(=O)Nc1ccc(F)c(-c2ccc3c(C(=O)NCCCN(C)C)n[nH]c3c2F)c1F`, less than 500 nM.
With `O=C1CCc2c1cc(F)cc2S(=O)(=O)Nc1ccc(F)c(-c2ccc3c(-c4ncc[nH]4)n[nH]c3c2F)c1F`, the IC50 is less than 500 nM.
The value for `CC1=CCc2c1cc(F)cc2S(=O)(=O)Nc1ccc(F)c(-c2ccc3c(-c4ncc[nH]4)n[nH]c3c2F)c1F` was less than 500 nM.
The value for `COc1nc(C)c(F)cc1S(=O)(=O)Nc1ccc(F)c(-c2ccc3c(-c4ncc[nH]4)n[nH]c3c2F)c1F` was less than 500 nM; that for `O=C1CCOc2c1cc(F)cc2S(=O)(=O)Nc1ccc(F)c(-c2ccc3c(-c4ncc[nH]4)n[nH]c3c2F)c1F` was less than 500 nM; that for `COc1ncc(Cl)cc1S(=O)(=O)Nc1ccc(F)c(-c2ccc3c(-c4[nH]ncc4C)n[nH]c3c2F)c1F` was 500 to 2500 nM.
Under `COc1ncc(Cl)cc1S(=O)(=O)Nc1ccc(F)c(-c2ccc3c(-c4cc(C(F)(F)F)n[nH]4)n[nH]c3c2F)c1F` stands 500 to 2500 nM.
`Cc1c(C(C)(C)O)cc(F)cc1S(=O)(=O)Nc1ccc(F)c(-c2ccc3c(-c4ncc[nH]4)n[nH]c3c2F)c1F` came in with an IC50 of less than 500 nM.
Take `Cc1c(C(C)O)cc(F)cc1S(=O)(=O)Nc1ccc(F)c(-c2ccc3c(-c4ncc[nH]4)n[nH]c3c2F)c1F` (stereo not shown): the IC50 was less than 500 nM.
The value for `O=S(=O)(Nc1ccc(F)c(-c2ccc3c(-c4ncc[nH]4)n[nH]c3c2F)c1F)c1cc(F)cc(CO)c1F` was less than 500 nM; that for `Cc1c(C(O)C(F)(F)F)cc(F)cc1S(=O)(=O)Nc1ccc(F)c(-c2ccc3c(-c4ncc[nH]4)n[nH]c3c2F)c1F` (stereo not shown) was 500 to 2500 nM.
